Key:
BTK(WT) kinase = BTK(WT) kinase (Homo sapiens, UniProt Q06187); experiment: Inhibitory activity against BTK(WT) kinase; conditions: read-out: BTK(WT) kinase inhibition IC50(nM )
Procedure: (§1) BTK kinase solution (concentration: 0.003 ng/µL) was added to assay wells at 6 µL/well, and different compounds dissolved in DMSO were added to the assay wells separately using a nanoliter pipettor, such that the final concentrations of the compounds were 1000 nM to 0.244 nM. The wells were set in duplicate, and a control well was set. After a 30-min incubation of the above system, ATP (concentration: 50 µM) was mixed with ULight-poly GT substrate (manufacturer: PerkinElmer, concentration: 0.5 µM) in a ratio of 1:1, and the mixture was added to the assay wells at 4 µL/well. The resulting mixture was left to react at room temperature for 2 h, and then 5 µL of EDTA was added to terminate the reaction, followed by the addition of 5 µL of a detection antibody (manufacturer: PerkinElmer, concentration: 8 nM). The mixture was incubated at room temperature for 1 h. The assay was performed using a PerkinElmer Envision multifunctional microplate reader (excitation: 320 nm, emission: 615 nm/665 nm), and IC50 was calculated by four-parameter fitting.

Chains of the proteins cited; added tags and fusions are not shown. Lines headed by an entry give the natural chain unless they say otherwise; changes in a name come on top.
UniProt Q06187, whole entry: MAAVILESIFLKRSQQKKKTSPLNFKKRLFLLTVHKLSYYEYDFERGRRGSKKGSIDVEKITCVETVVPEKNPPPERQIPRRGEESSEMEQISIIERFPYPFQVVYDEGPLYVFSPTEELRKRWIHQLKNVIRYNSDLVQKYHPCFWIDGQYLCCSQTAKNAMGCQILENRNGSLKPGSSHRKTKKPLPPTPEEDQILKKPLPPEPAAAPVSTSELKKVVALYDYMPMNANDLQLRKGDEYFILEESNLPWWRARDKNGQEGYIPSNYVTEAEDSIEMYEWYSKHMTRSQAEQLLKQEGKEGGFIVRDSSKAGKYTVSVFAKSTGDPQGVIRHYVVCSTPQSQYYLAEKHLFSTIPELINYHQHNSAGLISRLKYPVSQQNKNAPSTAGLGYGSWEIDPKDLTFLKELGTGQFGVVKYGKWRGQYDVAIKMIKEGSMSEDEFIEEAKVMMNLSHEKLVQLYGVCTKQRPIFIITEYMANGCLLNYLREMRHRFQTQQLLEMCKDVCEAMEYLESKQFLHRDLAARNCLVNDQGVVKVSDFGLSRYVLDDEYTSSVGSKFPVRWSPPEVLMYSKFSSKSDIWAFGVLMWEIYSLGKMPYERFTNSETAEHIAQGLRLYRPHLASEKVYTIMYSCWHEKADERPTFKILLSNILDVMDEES
UniProt Q06187, whole entry C481S: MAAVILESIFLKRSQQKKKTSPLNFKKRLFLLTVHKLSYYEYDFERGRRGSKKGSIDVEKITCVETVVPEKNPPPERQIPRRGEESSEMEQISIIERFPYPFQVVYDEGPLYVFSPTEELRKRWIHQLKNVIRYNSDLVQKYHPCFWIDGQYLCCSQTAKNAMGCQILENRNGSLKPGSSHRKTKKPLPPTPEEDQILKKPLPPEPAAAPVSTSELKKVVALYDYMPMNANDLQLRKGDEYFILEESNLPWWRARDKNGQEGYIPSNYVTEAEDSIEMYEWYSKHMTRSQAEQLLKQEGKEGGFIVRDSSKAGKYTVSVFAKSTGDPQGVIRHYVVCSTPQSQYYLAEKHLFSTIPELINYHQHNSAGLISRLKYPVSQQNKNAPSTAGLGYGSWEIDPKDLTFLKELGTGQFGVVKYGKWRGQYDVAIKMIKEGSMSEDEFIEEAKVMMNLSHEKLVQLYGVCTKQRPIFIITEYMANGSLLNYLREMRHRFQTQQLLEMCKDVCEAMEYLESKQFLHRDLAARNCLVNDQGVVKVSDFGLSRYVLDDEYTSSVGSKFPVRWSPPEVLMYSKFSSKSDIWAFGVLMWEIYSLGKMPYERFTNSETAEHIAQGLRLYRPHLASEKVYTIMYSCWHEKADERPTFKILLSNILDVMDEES

BTK(C481S) kinase = BTK(C481S) kinase (Homo sapiens, UniProt Q06187, C481S); experiment: Inhibitory activity against BTK(C481S) kinase; conditions: read-out: BTK(C481S) kinase inhibition IC50(nM )
Procedure: as §1, with “BTK(C481S)” for “BTK”, “0.006” for “0.003”, “fitting. The test results are shown in Table 3, where A represents: the IC50 value ≤ 10 nM.” for “fitting.”

OCI-LY10 cells = experiment: Inhibitory activity against OCI-LY10 cell proliferation (CCK-8); conditions: 72 h incubation
Procedure: OCI-LY10 cells in a good growth state were collected into a centrifuge tube, adjusted to a cell density of 9 × 10^4 cells/mL using an assay medium (1640 + 10% FBS), and seeded onto a 96-well plate (100 µL/well). The cells were incubated overnight in a cell incubator. Compounds were added using a nanoliter pipettor such that the final concentrations of the compounds were 1000 nM to 1.64 nM (the addition was performed in duplicate). Meanwhile, a control was set. After 72 h of incubation in the cell incubator, the assay reagent CCK-8 (manufacturer: Dojindo Laboratories; 10 µL/well) was added. After 4 h of incubation in the cell incubator, the absorbance values were measured at 450 nm on a PerkinElmer Envision microplate reader. A four-parameter analysis was performed, a dose-response curve was fitted, and IC50 was calculated. Table 1. Inhibitory activity against OCI-LY10 cell proliferation

Measured: IC50

COCCN1CCN(c2ccc(Nc3cnn(-c4ccc(CNC(=O)c5cc(F)cc6cccnc56)cc4)c3C(N)=O)nc2C(C)OC)CC1 (single isomer, unassigned)
< 10 nM: all assays above

CCC(O)c1nc(Nc2cnn(-c3ccc(CNC(=O)c4cc(F)cc5cccnc45)cc3)c2C(N)=O)ccc1N1CCN(C2COC2)CC1 (racemic)
< 10 nM: all assays above

CCOC(C)c1nc(Nc2cnn(-c3ccc(CNC(=O)c4cc(F)cc5cccnc45)cc3)c2C(N)=O)ccc1N1CCN(CCOC)CC1 (stereo not drawn)
< 10 nM: all assays above

COCCN1CCN(c2ccc(Nc3cnn(-c4ccc(CNC(=O)c5cc(F)cc6cccnc56)cc4)c3C(N)=O)nc2C(C)OC)CC1 (racemic)
< 10 nM: all assays above

CC1CN(C2COC2)CCN1c1ccc(Nc2cnn(-c3ccc(CNC(=O)c4cc(F)cc5cccnc45)cc3)c2C(N)=O)nc1 (stereo not drawn)
< 10 nM: all assays above

[2H]C([2H])([2H])OCCN1CCN(c2ccc(Nc3cnn(-c4ccc(CNc5nccc6c(F)ccc(OC)c56)cc4)c3C(N)=O)nc2C(C)OC)CC1 (stereo not drawn)
< 10 nM: all assays above

COCCN1CCN(c2ccc(Nc3cnn(-c4ccc(CNC(=O)c5cc(F)cc6cccnc56)cc4)c3C(N)=O)nc2C(O)C2CC2)CC1 (stereo not drawn)
< 10 nM: all assays above

COc1ccc(F)c2ccnc(NCc3ccc(-n4ncc(Nc5ccc(N6CCN(C)C(C)C6)c(C(O)C(F)(F)F)n5)c4C(N)=O)cc3)c12 (stereo not drawn)
< 10 nM: all assays above

COCCN1CCC(c2ccc(Nc3cnn(-c4ccc(CNc5nccc6c(F)ccc(OC)c56)cc4)c3C(N)=O)nc2C(C)O)CC1 (racemic)
< 10 nM: all assays above

COCCN1CCN(c2ccc(Nc3cnn(-c4ccc(CNC(=O)c5cc(F)cc6cccnc56)cc4)c3C(N)=O)nc2C(O)C(F)(F)F)CC1 (stereo not drawn)
< 10 nM: all assays above

NC(=O)c1c(Nc2ccc(N3CCN(C4COC4)CC3)c(C(O)C(F)(F)F)n2)cnn1-c1ccc(CNC(=O)c2cc(F)cc3cccnc23)cc1 (racemic)
< 10 nM: all assays above

[2H]C([2H])([2H])OC(C)c1nc(Nc2cnn(-c3ccc(CNc4nccc5c(F)ccc(OC)c45)cc3)c2C(N)=O)ccc1N1CCN(CCOC)CC1 (stereo not drawn)
< 10 nM: all assays above

COc1ccc(F)c2ccnc(NCc3ccc(-n4ncc(Nc5ccc(N6CCN(C7COC7)CC6)c(C(O)C6CC6)n5)c4C(N)=O)cc3)c12 (racemic)
< 10 nM: all assays above

[2H]C([2H])([2H])OCc1nc(Nc2cnn(-c3ccc(CNC(=O)c4cc(F)cc5cccnc45)cc3)c2C(N)=O)ccc1N1CCN(CCOC)CC1
< 10 nM: all assays above

CN(C)C1CCC(Nc2ccc(Nc3cnn(-c4ccc(CNC(=O)c5cc(F)cc6cccnc56)cc4)c3C(N)=O)nc2)CC1 (stereo not drawn)
< 10 nM: all assays above

COc1ccc(F)c2ccnc(NCc3ccc(-n4ncc(Nc5ccc(NC6CCC(N(C)C)CC6)c(C)n5)c4C(N)=O)cc3)c12 (single isomer, unassigned)
< 10 nM: all assays above

COCCN1CCN(c2ccc(Nc3cnn(-c4ccc(CNc5nccc6c(F)ccc(OC)c56)cc4)c3C(N)=O)nc2C(O)C(F)(F)F)CC1 (racemic)
< 10 nM: all assays above

COCCN1CCC(c2ccc(Nc3cnn(-c4ccc(CNC(=O)c5cc(F)cc6cccnc56)cc4)c3C(N)=O)nc2C(C)O)CC1 (stereo not drawn)
< 10 nM: all assays above

[2H]C([2H])([2H])OC(C)c1nc(Nc2cnn(-c3ccc(CNC(=O)c4cc(F)cc5cccnc45)cc3)c2C(N)=O)ccc1N1CCN(CCOC)CC1 (stereo not drawn)
< 10 nM: all assays above

NC(=O)c1c(Nc2ccc(N3CCN(C4COC4)CC3)c(C(O)C3CC3)n2)cnn1-c1ccc(CNC(=O)c2cc(F)cc3cccnc23)cc1 (single isomer, unassigned)
< 10 nM: all assays above

CCC(O)c1nc(Nc2cnn(-c3ccc(CNc4nccc5c(F)ccc(OC)c45)cc3)c2C(N)=O)ccc1N1CCN(C2COC2)CC1 (stereo not drawn)
< 10 nM: all assays above

[2H]C([2H])([2H])N1CCN(c2ccc(Nc3cnn(-c4ccc(CNc5nccc6c(F)ccc(OC)c56)cc4)c3C(N)=O)nc2C(OC)C2CC2)CC1 (stereo not drawn)
< 10 nM: all assays above

COc1ccc(F)c2cc(C)nc(NCc3ccc(-n4ncc(Nc5ccc(NC6CCN(C)CC6)c(C(O)C(F)(F)F)n5)c4C(N)=O)cc3)c12 (stereo not drawn)
< 10 nM: all assays above

C=CCCC(O)c1nc(Nc2cnn(-c3ccc(CNC(=O)c4cc(F)cc5cccnc45)cc3)c2C(N)=O)ccc1N1CCN(C)CC1 (stereo not drawn)
< 10 nM: all assays above

COCCN1CCN(c2ccc(Nc3cnn(-c4ccc(CNC(=O)c5cc(F)cc6cccnc56)cc4)c3C(N)=O)nc2COC)CC1
< 10 nM: all assays above

COCCN1CCN(c2ccc(Nc3cnn(-c4ccc(CNc5nccc6c(F)ccc(OC)c56)cc4)c3C(N)=O)nc2C(O)C2CC2)CC1 (stereo not drawn)
< 10 nM: all assays above

CN(C)C1CCN(c2ccc(Nc3cnn(-c4ccc(CNC(=O)c5cc(F)cc6cccnc56)cc4)c3C(N)=O)nc2C(O)C(F)(F)F)CC1 (stereo not drawn)
< 10 nM: all assays above

COc1ccc(F)c2cc(C)nc(NCc3ccc(-n4ncc(Nc5ccc(N6CCN(C7COC7)CC6)c(C(O)C(F)(F)F)n5)c4C(N)=O)cc3)c12 (racemic)
< 10 nM: all assays above

CN1CCN(c2ccc(Nc3cnn(-c4ccc(CNC(=O)c5cc(F)cc6cccnc56)cc4)c3C(N)=O)nc2C(O)C2CC2)CC1 (racemic)
< 10 nM: all assays above

— EP4825855A1, “COMPOUND CONTAINING PYRAZOLE RING AND BICYCLIC HETEROARYL GROUP, PHARMACEUTICAL COMPOSITION THEREOF AND USE THEREOF” (dated 2026)
